Results published in US20250296928A1, “A SYNTHESIS SCHEME AND PROCEDURES FOR PREPARING A SIK3 INHIBITOR AND INTERMEDIATES THEREOF” (iOmx Therapeutics AG, priority 2021, published 2025).

Tested on: MC38 syngeneic tumour model
Assay: MC38 syngeneic tumour model, comparative study E9 versus dasatinib (FIG. 5)
Format: in vivo, mice
Settings: 30 mg/kg QD
Description: Left hand column=compound treatment group; and right hand column=vehicle treatment group. Y axes=Tumour volume (mm3); X axes=Days after inoculation.

## Cc1nc(Nc2ncc(C(=O)Nc3c(C)cccc3Cl)s2)cc(N2CCN(CCO)CC2)n1 [Compound A8, N-(2-chloro-6-methylphenyl)-2-[[6-[4-(2-hydroxyethyl)-1-piperazinyl]-2-methyl-4-pyrimidinyl]amino]-5-thiazolecarboxamide]
  average TGI: 56%
